scFv variants of Ab-91 (heavy chain) against a SARS-CoV-2 spike peptide

Values reported by Engelhart et al. 2022, doi:10.1038/s41597-022-01779-4 (FLAb copy).

Target: peptide PDVDLGDISGINAS, taken from heptad repeat 2 (HR2) of SARS-CoV-2 spike.

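Phage display of a naive human antibody library on the peptide gave the parent. The library (AAYL51) carries one to three amino acid substitutions per variant, with no insertions or deletions. In AlphaSeq, yeast of one mating type display the scFv and yeast of the other type display the target. Mating (16 h, 30 °C) was followed by selection of diploids and sequencing of their barcodes. The ratio of observed to expected reads was calibrated, replicate by replicate, on BCL2-family standards whose Kd was known from biolayer interferometry. Mating was done three times.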

Parent: Ab-91, a human scFv built as VL, three GGGGS repeats, VH. Only the CDRs of the heavy chain vary.
VL: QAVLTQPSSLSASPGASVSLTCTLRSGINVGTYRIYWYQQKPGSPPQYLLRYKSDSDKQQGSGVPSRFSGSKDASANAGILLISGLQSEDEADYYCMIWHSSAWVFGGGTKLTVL
VH: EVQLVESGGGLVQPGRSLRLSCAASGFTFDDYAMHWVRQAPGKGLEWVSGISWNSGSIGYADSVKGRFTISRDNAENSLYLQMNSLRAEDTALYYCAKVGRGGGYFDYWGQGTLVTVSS

Each variant is given by its three heavy chain CDRs, as the data file delimits them; those of the parent are GFTFDDYAMH, GISWNSGSIGYADSVK, VGRGGGYFDY. The read-out is the apparent dissociation constant on a log10 scale (nM): the lower, the stronger. "nd" marks a missing value. The strain was present, yet no cells mated with the target were sequenced in that replicate, which points to weak or no binding.

With GFMFDDYAMH, GISWNSGSIGYAGFVK, VGRGGGYFDY the result was 2.97, nd, nd (controls 0 of 9).
With GFTFDDYMMM, GGSWNSGSIGYADSVK, VGRGGGYFDY the result was nd, nd, nd (controls 1 of 9).
With GFTFDDMAMH, GGSWNSGIIGYADSVK, VGRGGGYFDY the result was nd, nd, nd (controls 4 of 9).
With GFTFDDYAYH, GISWNSGSIGYADSVK, AGRGGGYADY the result was nd, nd, nd (controls 0 of 9).
With GFTFDDYANH, YYSWNSGSIGYADSVK, VGRGGGYFDY the result was nd, nd, nd (controls 0 of 9).
With GFTFDDYAMH, GISWNSGSIGYADSTK, VGIGGKYFDY the result was 4.21, nd, nd (controls 0 of 9).
With GWTFDDYANH, GISTNSGSIGYADSVK, VGRGGGYFDY the result was nd, 4.55, nd (controls 2 of 9).
With GETFDDYAMH, GISWNSGSIGYLDSVK, VGRGGNYFDY the result was nd, nd, 3.65 (controls 0 of 9).
With AFTFDDYAMH, CISWNSGSIGNADSVK, VGRGGGYFDY the result was 4.85, 5.01, nd (controls 5 of 9).
With GFTFDDYAMH, GISWNSGPIGYADSVK, VGRGGGYQDY the result was nd, nd, nd (controls 1 of 9).
With GFTFDDYAMI, GISWNSGSIGYEDSVK, VGGGGGYFDY the result was nd, nd, nd (controls 0 of 9).
With GFRFDDYAMH, GISWNSGSIGYADSVK, VGWGGFYFDY the result was nd, nd, nd (controls 2 of 9).
With GFTFDDYAMH, GISWNSGDDGYADSVK, VGRGGGYWDY the result was nd, nd, nd (controls 1 of 9).
With TFTFDDYAMH, GISWNSGSIGYADSSK, VGRKGGYFDY the result was nd, nd, nd (controls 0 of 9).
With GFTFDDYAMH, GTSWNSGSIGYADSFK, VGRGGGIFDY the result was 4.71, 4.35, 5.25 (controls 7 of 9).
With GFTFDDYAMH, GISWNSMSIGYADSVK, VGRGGGYFIH the result was 4.29, 5.73, 6.00 (controls 7 of 9).
With EFTFDDYAMH, GISWNSGSIGQADSVK, VGRGVGYFDY the result was nd, 4.75, nd (controls 2 of 9).
With GGTFDDYALH, GISWNSGSIGYADSVK, VGRGGGMFDY the result was nd, 4.70, nd (controls 3 of 9).
With GFTFDDYAMH, GISWNSGSIGYAHSVK, VGRGPSYFDY the result was 5.77, 5.23, 5.70 (controls 7 of 9).
With GFTFDDYAMH, GISWNSGSIGYADSRK, VGRGGGDFPY the result was nd, nd, nd (controls 1 of 9).
With GFTWDDYAMH, AISWNSGSIGSADSVK, VGRGGGYFDY the result was nd, nd, nd (controls 0 of 9).
With GFTFDDYAMH, GISWNSHRIHYADSVK, VGRGGGYFDY the result was 4.55, 4.59, nd (controls 5 of 9).
With GFTFDDYAMH, GISWNSESIGYADVVK, VGRGGGYFDC the result was nd, 4.78, nd (controls 1 of 9).
With GFTFDDYAMH, GISWNSGSIGYADFVK, VGRGGQPFDY the result was nd, nd, nd (controls 0 of 9).
With GFTFDDVAMH, GISWNDGSIGYADSVK, VGRGGGYFKY the result was 5.61, nd, 4.99 (controls 5 of 9).
With GFTFDDYAMH, GGSWNSGSIGYADSVK, VGRGGGYRDY the result was nd, nd, nd (controls 3 of 9).
With NFTFDDYAMH, GISWNSGSIGYADSVK, VGRNGGYFDY the result was 4.46, 4.57, 4.12 (controls 5 of 9).
With GFTFDDYAQH, GISFNSGSIGYADSVK, VGRGGGYNDY the result was 4.01, nd, nd (controls 0 of 9).
With GFTFDYYAMH, GISWNSGSIGYDDSVK, VGRGGGMFDY the result was 4.05, 3.77, 4.04 (controls 2 of 9).
With GFTFDDWAMH, GISWNSGQIGYADSVK, VGRGGGYFDY the result was 3.40, 3.77, nd (controls 2 of 9).
With GFTFPDEAMH, GISWNSHSIGYADSVK, VGRGGGYFDY the result was nd, nd, 3.57 (controls 0 of 9).
With GFIFDCYAMH, GIGWNSGSIGYADSVK, VGRGGGYFDY the result was 3.88, nd, nd (controls 1 of 9).
With GFTFDDMAMH, GISWNSRSIGYADSVK, VGRRGGYFDY the result was nd, nd, nd (controls 1 of 9).
With GFTFDDYAMS, GISWNSGSIGMADSVK, VGRGGGYFDF the result was nd, nd, nd (controls 1 of 9).
With GATPDDDAMH, GISWNSGSIGYADSVK, VGRGGGYFDY the result was 5.22, 6.06, 6.33 (controls 7 of 9).
With GFCFDDYAMH, GIMWNSGSGGYADSVK, VGRGGGYFDY the result was nd, nd, nd (controls 1 of 9).
With GFTFDDFAMH, GISWASGSIGYADSVK, VNRGGGYFDY the result was nd, nd, nd (controls 1 of 9).
With GFTFDDYAMH, GISWNSGSIGYADGVK, VGRGGGYFDY the result was nd, 3.81, nd (controls 0 of 9).
With LFTFDDYAMH, GISWNSGSIGYADSVK, VERYGGYFDY the result was 5.60, nd, nd (controls 4 of 9).
With GFTFDDKAMH, GISWNSGSIGYAFSVK, VGRGGGYFDY the result was 5.11, nd, nd (controls 2 of 9).
With GFTFDDYAMH, GISWNSQSIGYADSVK, VGRGGGYNGY the result was nd, nd, nd (controls 2 of 9).
With GFTFDDYAMH, GISWNSGSIGYADKVK, VGRGELYFDY the result was nd, nd, nd (controls 0 of 9).
With GFTFDDYAMH, GISWNSGSIGYKDSVK, VGRGETYFDY the result was nd, nd, nd (controls 0 of 9).
With GFTFYDYAMC, GISWNSGSIGYADSVK, VGRGGYYFDY the result was nd, 4.23, nd (controls 0 of 9).
With GFTFDDYFNF, GISWNSGSIGYADSVK, VGRGGGYFDY the result was 5.20, 4.59, nd (controls 5 of 9).
With GFTFDDKAMQ, GISWNSGYIGYADSVK, VGRGGGYFDY the result was nd, nd, nd (controls 1 of 9).
With GFTFDDYAYH, GISWNSGSIGYVDDVK, VGRGGGYFDY the result was nd, nd, 4.37 (controls 0 of 9).
With GFTIDDYAMH, GISWNSVSIGYADSVK, VGRGGGAFDY the result was 4.15, 4.12, nd (controls 3 of 9).

Again, the first 7 entries without any signal:

For GFTFDDYMMM, GGSWNSGSIGYADSVK, VGRGGGYFDY, the assay gave nd, nd, nd (controls 1 of 9).
For GFTFDDMAMH, GGSWNSGIIGYADSVK, VGRGGGYFDY, the assay gave nd, nd, nd (controls 4 of 9).
For GFTFDDYAYH, GISWNSGSIGYADSVK, AGRGGGYADY, the assay gave nd, nd, nd (controls 0 of 9).
For GFTFDDYANH, YYSWNSGSIGYADSVK, VGRGGGYFDY, the assay gave nd, nd, nd (controls 0 of 9).
For GFTFDDYAMH, GISWNSGPIGYADSVK, VGRGGGYQDY, the assay gave nd, nd, nd (controls 1 of 9).
For GFTFDDYAMI, GISWNSGSIGYEDSVK, VGGGGGYFDY, the assay gave nd, nd, nd (controls 0 of 9).
For GFRFDDYAMH, GISWNSGSIGYADSVK, VGWGGFYFDY, the assay gave nd, nd, nd (controls 2 of 9).

Nonspecific signal, from three strains lacking the peptide, appeared in 21% of pairings of library AAYL51, centred on 4.54 (5% of these signals below 3.26); values are not corrected for it. The control count says in how many pairings with the empty strains this scFv gave a signal. Parent in this assay: reference entry 1.86, copy in this library 0.88.